System: Bromodomain-containing protein 4 (Homo sapiens), O60885 [UNDEFINED MUTATION]
Test: Selectivity index, […] for His6-thr-tagged BRD4 BD1 (1 to 477 residues)/BD2 Y390A mutant (unknown origin) to pIC50 for His6-tagged BRD4 BD2 (1 to 477 residues)/BD1 Y97A mutant (unknown origin)

SMILES | Selectivity Index
Cc1cc2c(-c3ccco3)cnc(N[C@H]3CCNC[C@@H]3C(=O)NC3CCCCC3)c2[nH]c1=O | 6
Cc1cc2c(-c3ccco3)cnc(N[C@@H]3CCNC[C@H]3C(=O)NC3CCCCC3)c2[nH]c1=O (racemic) | 630
Cc1cc2c(-c3ccco3)cnc(N[C@@H]3CCNC[C@H]3C(=O)NC3CCCCC3)c2[nH]c1=O | 630

— ChEMBL document CHEMBL4725292 (J Med Chem, 2020)
